Source: patent publication US12171806B2, “Therapeutic regimens and methods for lowering blood glucose and/or body weight using GLP-1R and GCGR balanced agonists” (priority 2021, dated 2024)

Assay: Phase 1 MAD study of ALT-801: adverse events (TEAEs), safety overview

CC[C@H](C)[C@H](NC(=O)[C@H](Cc1ccccc1)NC(=O)[C@H](CCC(=O)O)NC(=O)[C@@H]1CCCCNC(=O)CC[C@H](NC(=O)[C@H](CC(=O)O)NC(=O)[C@H](CC(C)C)NC(=O)[C@H](Cc2ccc(O)cc2)NC(=O)[C@H](CCCCN)NC(=O)[C@H](CO)NC(=O)[C@H](Cc2ccc(O)cc2)NC(=O)[C@H](CC(=O)O)NC(=O)[C@H](CO)NC(=O)[C@@H](NC(=O)[C@H](Cc2ccccc2)NC(=O)[C@@H](NC(=O)CNC(=O)[C@H](CCC(N)=O)NC(=O)C(C)(C)NC(=O)[C@@H](N)Cc2c[nH]cn2)[C@@H](C)O)[C@@H](C)O)C(=O)N[C@@H](CCCCNC(=O)[C@H]2O[C@@H](OCCCCCCCCCCCCCCCCCC(=O)O)[C@H](O)[C@@H](O)[C@@H]2O)C(=O)N[C@@H](C)C(=O)N[C@@H](C)C(=O)N1)C(=O)N[C@@H](CCC(N)=O)C(=O)N[C@@H](Cc1c[nH]c2ccccc12)C(=O)N[C@@H](CC(C)C)C(=O)N[C@@H](CC(C)C)C(=O)N[C@@H](CCC(N)=O)C(=O)N[C@H](C(N)=O)[C@@H](C)O [ALT-801, pemvidutide]
TEAE Vascular disorders, maximum severity PLT, subjects % (M2 1.8 mg ALT-801 (N = 9)): (0.0%) | TEAE Vascular disorders, maximum severity PLT, subjects n (M2 1.8 mg ALT-801 (N = 9)): 0 | TEAE Vascular disorders, maximum severity Severe, subjects % (M2 1.8 mg ALT-801 (N = 9)): (0.0%) | TEAE Vascular disorders, maximum severity Severe, subjects n (M2 1.8 mg ALT-801 (N = 9)): 0 | Any TEAE; Mild; % (M3 2.4 mg (N = 11)): (54.5%) | Any TEAE; Mild; n (M3 2.4 mg (N = 11)): 6 | Any TEAE; Moderate; % (M3 2.4 mg (N = 11)): (45.5%) | Any TEAE; Moderate; n (M3 2.4 mg (N = 11)): 5 | Any TEAE; PLT; % (M3 2.4 mg (N = 11)): (0.0%) | Any TEAE; PLT; n (M3 2.4 mg (N = 11)): 0 | Any TEAE; Severe; % (M3 2.4 mg (N = 11)): (0.0%) | Any TEAE; Severe; n (M3 2.4 mg (N = 11)): 0 | TEAE Abdominal discomfort; Mild; % (M3 2.4 mg (N = 11)): (9.1%) | TEAE Abdominal discomfort; Mild; n (M3 2.4 mg (N = 11)): 1 | TEAE Abdominal discomfort; Moderate; % (M3 2.4 mg (N = 11)): (0.0%) | TEAE Abdominal discomfort; Moderate; n (M3 2.4 mg (N = 11)): 0 | TEAE Abdominal discomfort; PLT; % (M3 2.4 mg (N = 11)): (0.0%) | TEAE Abdominal discomfort; PLT; n (M3 2.4 mg (N = 11)): 0 | TEAE Abdominal discomfort; Severe; % (M3 2.4 mg (N = 11)): (0.0%) | TEAE Abdominal discomfort; Severe; n (M3 2.4 mg (N = 11)): 0 | TEAE Abdominal distension; Mild; % (M3 2.4 mg (N = 11)): (9.1%) | TEAE Abdominal distension; Mild; n (M3 2.4 mg (N = 11)): 1 | TEAE Abdominal distension; Moderate; % (M3 2.4 mg (N = 11)): (0.0%) | TEAE Abdominal distension; Moderate; n (M3 2.4 mg (N = 11)): 0 | TEAE Abdominal distension; PLT; % (M3 2.4 mg (N = 11)): (0.0%) | TEAE Abdominal distension; PLT; n (M3 2.4 mg (N = 11)): 0 | TEAE Abdominal distension; Severe; % (M3 2.4 mg (N = 11)): (0.0%) | TEAE Abdominal distension; Severe; n (M3 2.4 mg (N = 11)): 0 | TEAE Abdominal pain; Mild; % (M3 2.4 mg (N = 11)): (36.4%) | TEAE Abdominal pain; Mild; n (M3 2.4 mg (N = 11)): 4 | TEAE Abdominal pain; Moderate; % (M3 2.4 mg (N = 11)): (0.0%) | TEAE Abdominal pain; Moderate; n (M3 2.4 mg (N = 11)): 0 | TEAE Abdominal pain; PLT; % (M3 2.4 mg (N = 11)): (0.0%) | TEAE Abdominal pain; PLT; n (M3 2.4 mg (N = 11)): 0 | TEAE Abdominal pain; Severe; % (M3 2.4 mg (N = 11)): (0.0%) | TEAE Abdominal pain; Severe; n (M3 2.4 mg (N = 11)): 0 | TEAE Anaemia; Mild; % (M3 2.4 mg (N = 11)): (0.0%) | TEAE Anaemia; Mild; n (M3 2.4 mg (N = 11)): 0 | TEAE Anaemia; Moderate; % (M3 2.4 mg (N = 11)): (0.0%) | TEAE Anaemia; Moderate; n (M3 2.4 mg (N = 11)): 0 | TEAE Anaemia; PLT; % (M3 2.4 mg (N = 11)): (0.0%) | TEAE Anaemia; PLT; n (M3 2.4 mg (N = 11)): 0 | TEAE Anaemia; Severe; % (M3 2.4 mg (N = 11)): (0.0%) | TEAE Anaemia; Severe; n (M3 2.4 mg (N = 11)): 0 | TEAE Application site bruise; Mild; % (M3 2.4 mg (N = 11)): (0.0%) | TEAE Application site bruise; Mild; n (M3 2.4 mg (N = 11)): 0 | TEAE Application site bruise; Moderate; % (M3 2.4 mg (N = 11)): (0.0%) | TEAE Application site bruise; Moderate; n (M3 2.4 mg (N = 11)): 0 | TEAE Application site bruise; PLT; % (M3 2.4 mg (N = 11)): (0.0%) | TEAE Application site bruise; PLT; n (M3 2.4 mg (N = 11)): 0 | TEAE Application site bruise; Severe; % (M3 2.4 mg (N = 11)): (0.0%) | TEAE Application site bruise; Severe; n (M3 2.4 mg (N = 11)): 0 | TEAE Application site erythema; Mild; % (M3 2.4 mg (N = 11)): (0.0%) | TEAE Application site erythema; Mild; n (M3 2.4 mg (N = 11)): 0 | TEAE Application site erythema; Moderate; % (M3 2.4 mg (N = 11)): (0.0%) | TEAE Application site erythema; Moderate; n (M3 2.4 mg (N = 11)): 0 | TEAE Application site erythema; PLT; % (M3 2.4 mg (N = 11)): (0.0%) | TEAE Application site erythema; PLT; n (M3 2.4 mg (N = 11)): 0 | TEAE Application site erythema; Severe; % (M3 2.4 mg (N = 11)): (0.0%) | TEAE Application site erythema; Severe; n (M3 2.4 mg (N = 11)): 0 | TEAE Blood and lymphatic system disorders; Mild; % (M3 2.4 mg (N = 11)): (0.0%) | TEAE Blood and lymphatic system disorders; Mild; n (M3 2.4 mg (N = 11)): 0 | TEAE Blood and lymphatic system disorders; Moderate; % (M3 2.4 mg (N = 11)): (0.0%) | TEAE Blood and lymphatic system disorders; Moderate; n (M3 2.4 mg (N = 11)): 0 | TEAE Blood and lymphatic system disorders; PLT; % (M3 2.4 mg (N = 11)): (0.0%) | TEAE Blood and lymphatic system disorders; PLT; n (M3 2.4 mg (N = 11)): 0 | TEAE Blood and lymphatic system disorders; Severe; % (M3 2.4 mg (N = 11)): (0.0%) | TEAE Blood and lymphatic system disorders; Severe; n (M3 2.4 mg (N = 11)): 0 | TEAE Cardiac disorders; Mild; % (M3 2.4 mg (N = 11)): (18.2%) | TEAE Cardiac disorders; Mild; n (M3 2.4 mg (N = 11)): 2 | TEAE Cardiac disorders; Moderate; % (M3 2.4 mg (N = 11)): (0.0%) | TEAE Cardiac disorders; Moderate; n (M3 2.4 mg (N = 11)): 0 | TEAE Cardiac disorders; PLT; % (M3 2.4 mg (N = 11)): (0.0%) | TEAE Cardiac disorders; PLT; n (M3 2.4 mg (N = 11)): 0 | TEAE Cardiac disorders; Severe; % (M3 2.4 mg (N = 11)): (0.0%) | TEAE Cardiac disorders; Severe; n (M3 2.4 mg (N = 11)): 0 | TEAE Constipation; Mild; % (M3 2.4 mg (N = 11)): (18.2%) | TEAE Constipation; Mild; n (M3 2.4 mg (N = 11)): 2 | TEAE Constipation; Moderate; % (M3 2.4 mg (N = 11)): (9.1%) | TEAE Constipation; Moderate; n (M3 2.4 mg (N = 11)): 1 | TEAE Constipation; Potentially PLT; % (M3 2.4 mg (N = 11)): (0.0%) | TEAE Constipation; Potentially PLT; n (M3 2.4 mg (N = 11)): 0 | TEAE Constipation; Severe; % (M3 2.4 mg (N = 11)): (0.0%) | TEAE Constipation; Severe; n (M3 2.4 mg (N = 11)): 0 | TEAE Diarrhoea; Mild; % (M3 2.4 mg (N = 11)): (18.2%) | TEAE Diarrhoea; Mild; n (M3 2.4 mg (N = 11)): 2 | TEAE Diarrhoea; Moderate; % (M3 2.4 mg (N = 11)): (0.0%) | TEAE Diarrhoea; Moderate; n (M3 2.4 mg (N = 11)): 0 | TEAE Diarrhoea; PLT; % (M3 2.4 mg (N = 11)): (0.0%)
